This is an account of results in BindingDB's records for doi:10.1073/pnas.90.18.8547 (U. 109, 1993).

Amino acid sequences for entries named in this document (tags omitted).
UniProt P32305, whole entry: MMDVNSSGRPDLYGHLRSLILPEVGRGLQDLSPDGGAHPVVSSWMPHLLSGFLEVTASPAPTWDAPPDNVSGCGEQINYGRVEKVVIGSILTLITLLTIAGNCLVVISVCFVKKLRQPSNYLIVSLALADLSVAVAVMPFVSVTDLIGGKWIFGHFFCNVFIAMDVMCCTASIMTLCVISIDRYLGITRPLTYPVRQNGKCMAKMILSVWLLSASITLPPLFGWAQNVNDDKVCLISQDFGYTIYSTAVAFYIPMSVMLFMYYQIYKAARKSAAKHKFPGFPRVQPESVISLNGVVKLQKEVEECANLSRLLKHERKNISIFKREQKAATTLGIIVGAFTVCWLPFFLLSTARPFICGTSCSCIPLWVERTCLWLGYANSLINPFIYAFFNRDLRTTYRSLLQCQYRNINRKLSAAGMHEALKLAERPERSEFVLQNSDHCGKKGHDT

The experiment deals with 5-hydroxytryptamine receptor 7 (Rattus norvegicus, UniProt P32305).

`COc1ccc2[nH]cc(CCN)c2c1` [tryptamine, 5-Methoxy]: the Ki was 0.94 nM.
